“Also recorded” adds a separate entry of the source.

The values that follow come from patent publication US20210402002A1, “CONJUGATE” (priority 2018, published 2021).

Data set [1] concerns SKBR-3 cells. The experiment in a line: ADCC assay (LDH cytotoxicity) with SKBR-3 cells pre-incubated with glycosylation inhibitors. In kind it is cell-based. As to the method:
(§1) SKBR-3 and SKOV-3 cells were cultured on 96-well plates in recommended conditions and incubated with or without glycosylation inhibitors or ADCs for four days as described above. […] After 3.5 h at +37° C., cytotoxicity was assessed with commercial lactate dehydrogenase assay kit (Cytotoxicity detection kit (LDH), Thermo Fischer Scientific) and the cytotoxicities were calculated as proportion of killed cells (%, average of three parallel wells).

For the next data set, the system named is SKOV-3 cells. The experiment in a line: ADCC assay (LDH cytotoxicity) with SKOV-3 cells pre-incubated with glycosylation inhibitors. In kind it is cell-based. As to conditions: SKOV-3, trastuzumab without both inhibitor and effector cells. The procedure:
as §1

The subject of data set [2] is NCI-N87 cancer cell line tumors. As to the kind of experiment: In vivo efficacy trial, tumors on chicken egg chorioallantoic membrane (CAM). The note with it: day E18, trastuzumab and tunicamycin-ADC single dose 2.5 mg/kg, pembrolizumab […] five doses, PBS control 32.2. The procedure: The study was performed by Inovotion SAS (La Tronche, France) as follows: Fertilized chicken eggs were incubated at 37.5° C. with 50% relative humidity for 9 days (E9), when the chorioallantoic membrane (CAM) was dropped down by drilling a small hole through the eggshell into the air sac, and a 1 cm^2 window was cut in the eggshell above the CAM. The NCI-N87 cell line was cultivated in RPMI-1640 medium supplemented with 10% FBS and 1% penicillin/streptomycin. On day E9, cells were detached by trypsin, washed with complete medium and suspended in graft medium. An inoculum of 2 million cells was added onto the CAM of each egg. On day 10 (E10), tumors began to be detectable. […] On day 18 (E18) the upper portion of the CAM was removed, washed in PBS and then directly transferred in PFA (fixation for 48 h). The tumors were then carefully cut away from normal CAM tissue and weighed. Eggs were checked at each treatment time, or at least every two days, for viability during the study. At the end of the study, the number of dead embryos was counted and combined with the observation of eventual visible macroscopic abnormalities (observation done during the sample collection) to evaluate the toxicity.

For data set [3], the system named is SKBR-3 cells. As to conditions: five or eight days, up to 1 μM.
The test system of data set [4] is SKBR-3 breast cancer cells. The experiment in a line: SNA-I lectin FACS of SKBR-3 cells incubated with glycosylation inhibitor-ADCs. In kind it is cell-based. As to conditions: for SNA-I staining (cell surface sialylation): 500 nM ADC. As to the method:
SKOV-3 ovarian carcinoma cells (ATCC, Manassas, Va., USA) were cultured according to ATCC's instructions and incubated in the presence of either 50 μM 2-acetamido-2,4-dideoxy-4-fluoro-1,3,6-tri-O-acetyl-D-glucose for 4 days (β-4-F-GlcNAc; Sussex Research, Ottawa, Canada), 100 μM 5-acetamido-3,5-dideoxy-3-fluoro-2,4,7,8,9-penta-O-acetyl-D-erythro-L-manno-2-nonulosonic acid methyl ester (β-3-Fax-Neu5Ac; Tocris Bioscience, Abingdon, United Kingdom) for 3 days, or DMSO carrier control in parallel. After the incubation, cells were stained with fluorescein-labeled lectins SNA-I-FITC for α2,6-sialylation, LEA-FITC for poly-N-acetyllactos-amines (both from EY Labs, San Mateo, Calif., USA), Alexa Fluor 488-conjugated human recombinant Galectin-1, and Alexa Fluor 488-conjugated human recombinant Galectin-3 (both from Abcam, Cambridge, United Kingdom). Cells were washed and stored on ice in the dark until analysed by FACSAriaII flow cytometer.
SKBR-3 breast cancer cells (ATCC) were cultured in recommended conditions and incubated with glycosylation inhibitors and ADCs as described above. The cells were then subjected to labeling with SNA-I lectin and FACS analysis as described above.

A further data set relates to HER2. As to the kind of experiment: Inhibition of HER2 glycoprotein N-glycosylation in SKBR-3 cells (SDS-PAGE, anti-HER2 immunoblot). The note with it: six days' incubation, read-out: EC50 (concentration with 50% efficacy) of decrease of relative MW of HER2, defective N-glycosylation. In kind it is cell-based, human. The text has this: After six days' culture, the cells were lysed and samples from each treatment were subjected to SDS-PAGE and immunoblotting with anti-HER2 antibody (anti-human ErbB2/Her2 goat polyclonal antibody AF1129, R&D Systems) with standard procedures.
In general terms: Immunoblotting shows a protein as a band on a membrane.

In the case of “trastuzumab: anti-HER2 antibody Trastuzumab (Herceptin, Roche)”, the “cytotoxicity (proportion of killed cells)” value in the data set on SKBR-3 cells [1] (first assay, SKBR-3, without inhibitors, 1 μg/ml trastuzumab and effector cells applied) is on record as 13.2%; in the data set on SKBR-3 cells [1] (second assay, SKBR-3, trastuzumab without both inhibitor and effector cells) it was “no cytotoxicity was observed”; in the data set on SKBR-3 cells [1] (second assay, SKBR-3, without inhibitors, trastuzumab and effector cells applied) it was “about 12%”; in the data set on SKOV-3 cells, “no cytotoxicity was observed”. Also, the “absorbance reading in the cytotoxicity assay” value with SKBR-3 cells [1] (third assay, SKBR-3, without the inhibitor, trastuzumab and effector cells applied) is given as “below 0.6”. The “Mean tumor size” value in data set [2] is recorded as 17.5 mg. Also, the “cytotoxicity to the cells in the viability assay” value with SKBR-3 cells [3] is reported as “only modest cytotoxicity”.

“trastuzumab-MC-VC-PAB-3Fax-Neu5N, DAR=4-8”: the “SNA-I staining (cell surface sialylation)” value is “staining dropped” in data set [4] (four days (figure legend)) and “reduced staining” in data set [4] (three days (Example 14 text)).

In the case of “Trastuzumab-MC-VC-PAB-DMAE-kifunensine, DAR=4-8: trastuzumab conjugated via reduced hinge cysteines to MC-VC-PAB-DMAE-kifunensine”, in data set [4] (10 nM ADC, four days), the “SNA-I staining (N-glycosylation-associated cell surface sialylation)” value is given as “staining dropped; also recorded: reduced staining”.

In the case of “trastuzumab-MC-VC-PAB-DMAE-tunicamycin DAR=8 ADC: DAR=8 conjugate of MC-VC-PAB-DMAE-tunicamycin V prepared from trastuzumab”, the EC50 in the data set on HER2 turned out to be 40 nM. Further, in data set [2], the “Mean tumor size” value was determined as 22.1 mg.
